Literature values in US20120309691A1, “TUMOR TARGETED DELIVERY OF IMMUNOMODULATORS BY NANOPOLYMERS” (priority 2010, published 2012).

System: advanced metastatic melanoma
Settings: retrospective long-term analysis; cited from earlier work

IL-2: exogenous cytokine approved for advanced metastatic melanoma
durable response rate: 4%
objective response rate: 16%
